Source: patent US20100009950A1, “SUBSTITUTED ETHANOLAMINES” (AUSPEX PHARMACEUTICALS, INC., priority 2008, published 2010)
Read-outs that look alike come from different tables or passages of the source.

Details: 1 mg per mL liver microsome protein, 1 μM, 37° C., vs non-isotopically enriched compound
[1] = mark in second data column (bin 0%-50%)

## OCc1cc(C(O)CNCCCCCCOCCCCc2ccccc2)ccc1O (stereo not shown) [Example 1, N-(2-Hydroxy-2-(4-hydroxy-3-(hydroxymethyl)phenyl)ethyl)-6-(4-phenylbutoxy)hexan-1-aminium 1-hydroxy-2-naphthoate, reference compound]
Mark in first data column (bin −25%-0%)
  % increase of HLM degradation half-life: + (−25%-0%)

## [2H]c1cc([2H])c(C([2H])([2H])C([2H])([2H])C([2H])([2H])C([2H])([2H])OCCCCCCNCC(O)c2ccc(O)c(CO)c2)c([2H])c1 (stereo not shown) [Example 2, N-(2-Hydroxy-2-(4-hydroxy-3-(hydroxymethyl)phenyl)ethyl)-6-(4-d3-phenyl-d8-butoxy)hexan-1-aminium 1-hydroxy-2-naphthoate]
[1]
  % increase of HLM degradation half-life: + (0%-50%)

## [2H]c1cc([2H])c(C([2H])([2H])C([2H])([2H])C([2H])([2H])C([2H])([2H])OC([2H])([2H])CCCCCNCC(O)c2ccc(O)c(CO)c2)c([2H])c1 (stereo not shown) [Example 3, N-(2-Hydroxy-2-(4-hydroxy-3-(hydroxymethyl)phenyl)ethyl)-6-(4-d3-phenyl-d8-butoxy)-d2-hexan-1-aminium 1-hydroxy-2-naphthoate]
[1]
  % increase of HLM degradation half-life: + (0%-50%)

## [2H]c1cc([2H])c(C([2H])([2H])C([2H])([2H])C([2H])([2H])C([2H])([2H])OC([2H])([2H])CCCCC([2H])([2H])NCC(O)c2ccc(O)c(CO)c2)c([2H])c1 (stereo not shown) [Example 4, N-(2-Hydroxy-2-(4-hydroxy-3-(hydroxymethyl)phenyl)ethyl)-6-(4-d3-phenyl-d8-butoxy)-d4-hexan-1-aminium 1-hydroxy-2-naphthoate]
[1]
  % increase of HLM degradation half-life: + (0%-50%)
